Test results published in publication PMC9501810, “Bitter Peptides YFYPEL, VAPFPEVF, and YQEPVLGPVRGPFPIIV, Released during Gastric Digestion of Casein, Stimulate Mechanisms of Gastric Acid Secretion via Bitter Taste Receptors TAS2R16 and TAS2R38” (Journal of Agricultural and Food Chemistry, 2022).

Tested on: HGT-1 cells
Test: Cell viability (MTT)
Settings: casein 10 µM, hydrolysates 10 µM, peptides 250 µM, probenecid 1 mM in KRHB or transfection reagents, 30 min or 72 h, relative to KRHB control = 100%

CCCN(CCC)S(=O)(=O)c1ccc(C(=O)O)cc1 [probenecid]
cell viability compared to control: ≥ 97.5%
